Values joined by “and” are separate entries in the source; they are usually repeats but may differ in a detail not shown here. Equal values may be shown once. This is a selection; strong and weak results do not stand in their true shares. Active and inactive are the calls of the source. Cut-off read from the data, not from the text of the source: active = inhibition above about 60%; inactive = the rest.

The chains behind the UniProt entries cited, without tags or fusion partners. Where a name states a change or a piece, a line headed by the entry shows the natural chain unless it says otherwise.
UniProt Q8TCT1: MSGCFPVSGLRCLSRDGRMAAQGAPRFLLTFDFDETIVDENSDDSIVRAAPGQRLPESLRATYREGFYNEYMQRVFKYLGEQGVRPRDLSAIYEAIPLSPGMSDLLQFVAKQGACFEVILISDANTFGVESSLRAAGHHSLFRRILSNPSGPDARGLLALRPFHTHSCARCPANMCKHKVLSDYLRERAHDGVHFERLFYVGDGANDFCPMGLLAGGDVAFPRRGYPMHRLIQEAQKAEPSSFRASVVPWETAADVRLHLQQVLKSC

The assay addresses Phosphoethanolamine/phosphocholine phosphatase (Homo sapiens) (UniProt Q8TCT1). Description: PubChem AID 1565. As to conditions: recombinant PHOSPHO1, absorbance phosphatase assay; at 13.3 µM; stronger effect = higher value.
Take `CCCCOc1ccc(C(=O)NCC2(N3CCCCC3)CCCCC2)cc1OC`: the inhibition (in general, the change of the read-out against control, counted positive when it falls) is inactive: 22.5%.
The same measure for `Cc1cc(SC(NC(=O)c2ccccc2)C(Cl)(Cl)Cl)nc(C(C)C)n1` (stereo not drawn): inactive: 13.3%; for `CCOC(=O)Nc1ccc([As](=O)(O)O)c(O)c1`: inactive: -9.7%; for `O=[N+]([O-])c1ccc(Nc2ccc(Oc3ccc([N+](=O)[O-])cc3[N+](=O)[O-])cc2)c([N+](=O)[O-])c1`: inactive: 2.5%.
The result for `Cc1cc(SC(NC=O)C(Cl)(Cl)Cl)ncn1` (stereo not drawn) reads inactive: 20.1%; that for `O=P(Nc1ccccn1)(c1cccc2ccccc12)c1cccc2ccccc12`, inactive: 11.9%.
In the case of `CCOC(=O)Nc1cccc([As](=O)(O)O)c1`, the inhibition is inactive: 38.6%.
With `O=C(COc1ccccc1)OC1CN2CCC1CC2` (stereo not drawn), the inhibition is inactive: -0.3%.
For `O=C(Nc1ccncc1[N+](=O)[O-])c1ccc([N+](=O)[O-])cc1[N+](=O)[O-]`, the inhibition is inactive: 23.3%.
Consider `COP1(=S)c2c(C)nn(CCC#N)c2N=C(c2ccc(F)cc2)N1C` (stereo not drawn), for which the inhibition was inactive: 48.3%.
The result for `CCC(C)N(CC(C)C)C(=S)SC(NC(C)=O)C(Cl)(Cl)Cl` (stereo not drawn) reads inactive: 0.5%.
For `CCOC(=O)c1ccc(NC(=O)C(C)(CCl)SC)cc1` (stereo not drawn), the inhibition was inactive: 36.2%.
For `O=C(OC1CN2CCC1CC2)c1cccc([N+](=O)[O-])c1` (stereo not drawn), the inhibition was inactive: 32.7%.
On to `COc1ccc2nc(NP(=O)(c3ccccc3)c3ccccc3)sc2c1`, for which the inhibition was inactive: 57.8%.
Take `COc1cc(I)ccc1[As](=O)(O)O`: the inhibition is inactive: 3.1%.
As to `O=C(OC1CN2CCC1CC2)C12CC3CC(CC(C3)C1)C2` (stereo not drawn), the inhibition is inactive: 4.7%.
The result for `Cc1cc(=O)[nH]c(N[N+](=O)[O-])n1` reads inactive: -15.7%; that for `Cc1c2c(nc3ccccc13)SC(C(Cl)Cl)C2` (stereo not drawn), inactive: -75.3%.
Take `COc1ccc(N/C(=N/P(=O)(N2CCOCC2)N2CCOCC2)N2CCOCC2)cc1`: the inhibition was inactive: -9.7%.
For the compound `Cc1ccc2nc3c(c(C)c2c1)CC(C(Cl)Cl)S3` (stereo not drawn), the inhibition is inactive: 14.1%.
Consider `Cc1ccc(OP(=O)(Nc2ccc([N+](=O)[O-])cn2)Oc2ccc(C)cc2)cc1`, for which the inhibition is inactive: 31.6%.
For the compound `C[As](=O)(O)c1cccc(C(=O)O)c1`, the inhibition was inactive: 38.6%.
The same measure for `O=[As](O)(c1ccc(O)cc1)c1ccccc1O`: inactive: 11.7%; for `CCN(CC)C(=S)SC(NC=O)C(Cl)(Cl)Cl` (stereo not drawn): inactive: 54.9%.
Regarding `CC(C)NC(=O)NP(=O)(Oc1ccccc1)Oc1ccccc1`, the inhibition is inactive: 19.2%.
As for `O=[N+]([O-])c1cc([N+](=O)[O-])c(-c2ccn[nH]2)s1`, the inhibition is inactive: -13%.
With `CC(C)c1ccc(OP(=O)(Nc2ccccn2)Oc2ccccc2F)cc1` (stereo not drawn), the inhibition was inactive: 11.9%.
Take `ClCCSc1nnc(-c2cccnc2)o1`: the inhibition is inactive: -8%.
Regarding `O=C(O)COc1ccc([As](=O)(O)O)cc1[N+](=O)[O-]`, the inhibition is inactive: 13.4%.
The result for `Nc1ccccc1[As](=O)(O)c1ccccc1` reads inactive: 33.1%; that for `CS(=O)(=O)c1cc([N+](=O)[O-])c2no[n+]([O-])c2c1`, active: 85%.
For the compound `CCOP1(=S)c2c(C)nn(CCC#N)c2N=C(c2ccccc2F)N1C` (stereo not drawn), the inhibition is inactive: 38%.
Consider `O=P(Nc1nccs1)(c1ccccc1)c1nc2ccccc2s1` (stereo not drawn), for which the inhibition is active: 72.7%.
With `O=P(Nc1nccs1)(Oc1ccccc1)Oc1ccccc1`, the inhibition is inactive: -10%.
Consider `O=[N+]([O-])c1ccc2c(c1)nnn2O`, for which the inhibition is inactive: 7.1%.
In the case of `CN(C(=O)Cc1ccccc1)[C@@H]1CC[C@]2(CCCO2)C[C@H]1N1CCCC1`, the inhibition is inactive: 8.5%.
In the case of `CCOP1(=S)c2c(C)nn(CCC#N)c2N=C(c2ccc(F)cc2)N1C` (stereo not drawn), the inhibition is inactive: 14.8%.
Take `NC(=O)Nc1ccc([As](=O)(O)O)cc1`: the inhibition was inactive: 35.3%.
Turning to `O=[As](O)(c1cccc(O)c1)c1cccc(O)c1`, the inhibition was inactive: -5.9%.
Consider `Cc1cccc(OCC(=O)OC2CN3CCC2CC3)c1` (stereo not drawn), for which the inhibition is inactive: -9.3%.
Consider `COc1cc(C(=O)NCC2(N3CCOCC3)CCCCC2)cc(Cl)c1OC(C)C`, for which the inhibition is inactive: -20.9%.
The same measure for `O=[As](O)(O)c1cccnc1`: inactive: 7.4%.
Turning to `CS(=O)(=O)c1ccc(Cl)c(NC(=O)COC(=O)C(O)(c2ccccc2)c2ccccc2)c1`, the inhibition is inactive: 37%.
Consider `O=C(OC1CN2CCC1CC2)c1ccc(Cl)cc1` (stereo not drawn), for which the inhibition was inactive: 12.3%.
Regarding `COc1cc(C2NCCC3(OCCO3)C2(C)C)cc(OC)c1OC` (stereo not drawn), the inhibition is inactive: -2.8%.
With `CCOP(=O)(Nc1cccc2ccccc12)OCC`, the inhibition was inactive: -8.2%.
For the compound `CCCOP(=S)(Nc1nc(N)cc(=O)[nH]1)OCCC`, the inhibition was inactive: -16.8%.
In the case of `Nc1cccc2c([As](=O)(O)O)cccc12`, the inhibition was inactive: 5.2%.
On to `Cc1ccc(NCCc2c([N+](=O)[O-])cc([N+](=O)[O-])cc2[N+](=O)[O-])cc1`, for which the inhibition is inactive: -14.7%.
The result for `Clc1n[nH]nc1-c1nn[nH][15n]1` reads inactive: 23.1%; that for `CC(C)(C)C(=O)NC(Sc1ncccn1)C(Cl)(Cl)Cl` (stereo not drawn), inactive: 12.2%.
On to `CCOP(=O)(Nc1ccc(C)cn1)OCC`, for which the inhibition was active: 62.2%.
Consider `CCC1=CC2Cc3nc4ccc(Cl)cc4c(N)c3C(C1)C2` (stereo not drawn), for which the inhibition was inactive: 44.4%.
For `O=P1(Nc2ccccn2)COc2ccccc2OC1`, the inhibition was inactive: 6.4%.
For `CCOP(=O)(NC(=NC(C)c1ccccc1)NC(C)c1ccccc1)OCC` (stereo not drawn), the inhibition was inactive: 22%.
Consider `O=[As](O)(c1ccccc1Br)c1ccccc1Br`, for which the inhibition is inactive: 2.8%.
The result for `CN(C(=O)Cc1ccc(Cl)c(Cl)c1)[C@@H]1CCCC[C@H]1N1CCCC1` reads inactive: 35.7%; that for `CC(C)/C=N\N=C(\N)N[N+](=O)[O-]`, active: 64.7%.
The same measure for `O=C(/C=C/c1ccccc1)OC1CN2CCC1CC2` (stereo not drawn): inactive: 3.8%.
The same measure for `CN(C)C1(CNC(=O)c2ccc(S(C)(=O)=O)cc2)CCCCC1`: inactive: 36.8%; for `Cc1nn(-c2ccccc2)c2c1P(=O)(N1CCOCC1)N(C)C(c1ccccc1)=N2` (stereo not drawn): inactive: 24.2%; for `CC1CCC(C(C)C)C(OP(=O)(Nc2ccccn2)c2ccccc2)C1` (stereo not drawn): inactive: 0.1%.
`O=P1(Nc2ccc(Br)cn2)COc2ccccc2OC1`: the inhibition is inactive: 1.8%.
The same measure for `O=[As](O)(c1cccs1)c1cccs1`: inactive: 19.9%; for `Cc1ccc(OCC(=O)OC2CN3CCC2CC3)cc1` (stereo not drawn): inactive: -25.8%; for `Nc1cccc([As](=O)(O)c2ccccc2)c1`: inactive: 3.1%.
For `O=P1(Nc2ncccn2)COc2ccccc2OC1`, the inhibition is inactive: -2.7%.
In the case of `O=P(Nc1nc2ccccc2s1)(c1ccccc1)c1ccccc1`, the inhibition was inactive: 32.7%.
Consider `C[C@H]1OP(=O)(Oc2ccccc2)[C@H](O)[C@H](O)[C@H]1N=[N+]=[N-]` (stereo partly drawn), for which the inhibition was inactive: 13%.
The same measure for `CN(C)C1(CNC(=O)c2ccc(Cl)c(S(N)(=O)=O)c2)CCCCC1`: inactive: 19.7%; for `O=P(Nc1ccccn1)(c1ccc(Br)cc1)c1ccc(Br)cc1`: inactive: 49.6%.
Consider `Nc1ccc([As](=O)(O)c2ccc([N+](=O)[O-])cc2)cc1`, for which the inhibition was inactive: 8.3%.
Consider `C(Cc1nn[nH]n1)Cc1nn[nH]n1`, for which the inhibition was inactive: 4.9%.
In the case of `O=C(OC1CN2CCC1CC2)c1cccc(Cl)c1` (stereo not drawn), the inhibition is inactive: -41.5%.
`O=[N+]([O-])c1ncn(CCn2cnc([N+](=O)[O-])n2)n1`: the inhibition was active: 65.5%.
For the compound `CC(=O)NC(SC(=S)N(C)C)C(Cl)(Cl)Cl` (stereo not drawn), the inhibition was inactive: -15.4%.
The result for `O=[N+]([O-])c1ccc(O)c(/C=N/Nc2ccc([N+](=O)[O-])cc2[N+](=O)[O-])c1` reads inactive: -44%; that for `O=[As](O)(c1ccccc1)c1ccc(O)cc1`, inactive: 20.3%; that for `c1nnnn1CCn1cnnn1`, inactive: -16.2%.
The same measure for `O=P(Nc1nccs1)(c1ccccc1)c1ccccc1`: inactive: 15.7%; for `CC(C)C(=O)NC(Sc1ccccc1)C(Cl)(Cl)Cl` (stereo not drawn): inactive: 6%; for `CC(C)(C)C(=O)NC(Sc1ccccc1)C(Cl)(Cl)Cl` (stereo not drawn): inactive: -7.1%.
Regarding `O=P1(Nc2nc3ccc(Cl)cc3s2)COc2ccccc2O1` (stereo not drawn), the inhibition was inactive: -7.4%.
Turning to `CCOc1ccc(C2=NCC(CBr)S2)cc1` (stereo not drawn), the inhibition is inactive: -22.6%.
The same measure for `CC(=O)Nc1ccc([As](=O)(O)O)c(O)c1`: inactive: 24.6%; for `CC(=O)Nc1ccc(Oc2c([N+](=O)[O-])cc([N+](=O)[O-])cc2[N+](=O)[O-])cc1`: inactive: 8.2%.
Consider `C[C@@H]1C=CCP(=O)(Oc2ccccc2)O1` (stereo partly drawn), for which the inhibition is inactive: 17.5%.
In the case of `C[C@H]1OP(=O)(Oc2ccccc2)C[C@@H]2O[C@@H]21` (stereo partly drawn), the inhibition is inactive: 13%.
Take `O=C(NC1CCS(=O)(=O)C1)NP(=S)(Oc1ccccc1)Oc1ccccc1` (stereo not drawn): the inhibition is inactive: -5.9%.
In the case of `CCNC(=S)/N=C(\N)N[N+](=O)[O-]`, the inhibition is inactive: 28.7%.
Take `c1ccc(-c2nn[nH]n2)c(-c2nn[nH]n2)c1`: the inhibition is inactive: -7.2%.
For the compound `CCOC(=O)NC(Sc1ccccc1)C(Cl)(Cl)Cl` (stereo not drawn), the inhibition was inactive: 26.7%.
In the case of `Cc1ccc(NP(=O)(Oc2cccc(C)c2)Oc2cccc(C)c2)nc1`, the inhibition is inactive: 37.1%.
As for `Cc1ccccc1OP(=O)(Nc1ccccn1)Oc1ccccc1C`, the inhibition is inactive: -7%.
With `CN(C)C(=O)Oc1noc2ccccc12`, the inhibition was inactive: 36.4%.
Take `O=c1c2cc([N+](=O)[O-])ccc2[nH]c2c([N+](=O)[O-])cc([N+](=O)[O-])cc12`: the inhibition is inactive: -39.1%.
On to `COC(=O)c1cc2c(s1)N=C(c1ccccc1)N(C)P2(=O)N1CCOCC1` (stereo not drawn), for which the inhibition is inactive: -23.1%.
On to `Cc1ccc(OP(=O)(Nc2ccccn2)Oc2ccc(C)cc2)cc1`, for which the inhibition was inactive: 21.9%.
The same measure for `CC(=O)NC(SC(=S)N(CC(C)C)CC(C)C)C(Cl)(Cl)Cl` (stereo not drawn): inactive: -2.6%; for `O=C(OC1CN2CCC1CC2)c1ccccc1` (stereo not drawn): inactive: 14.1%.
For `CCC(=O)N1C2C3N(C(=O)CC)C1C1N(C(=O)CC)C(C(N1C(=O)CC)N3C(=O)CC)N2C(=O)CC`, the inhibition was inactive: 54.6%.
The result for `CCOP(=O)(Nc1ccccc1)OCC` reads inactive: -7.4% and inactive: 18.9%; that for `Cc1cc(SC(NC(=O)c2ccc(F)cc2)C(Cl)(Cl)Cl)ncn1` (stereo not drawn), inactive: -4.5%.

The record behind these values is PubChem BioAssay AID1565 (Sanford-Burnham Center for Chemical Genomics, 2009).
